In brackets after ≈: the same amount, converted by molar mass.
How the values were obtained:
[1] = test system: sheep red blood cells; test: Hemolysis of sheep red blood cells; assay type: cell-based; settings: sheep red blood cells in vitro; 200 μM assigned when no detectable hemolysis at 100 μM
Procedure: (§1) The capacity of peptides in the lysis of erythrocytes was analyzed using sheep red blood cells (RBCs) as described previously. Cytotoxicity was further assessed in mouse macrophage RAW264.7 cells, which were cultured in Dulbecco’s modified Eagle medium (Thermo Fischer Scientific Inc., USA) enriched with fetal bovine serum (10%) and antibiotics (penicillin/streptomycin, 100 IU/ 100 mg/L) at 37°C in a CO2 incubator. The cytotoxic effect of Pro9-3 series peptides against RAW264.7 cells was then determined using WST-8 Cell Proliferation Assay Kit (Biomax Co. Ltd., Korea). The analysis was carried out according to our previously reported method.

[2] = test system: RAW264.7 cells; test: Cytotoxicity, WST-8 cell proliferation assay; assay type: cell-based, mouse; settings: 100 μM peptide, 24 h, mean of three experiments
Procedure: as §1
Fig. 1 Cytotoxicities of peptides. (A) Dose-dependent hemolytic activities in sheep red blood cell (sRBC) caused by peptides. (B) Dose-response cytotoxicities of the Pro9-3 and its analogs against RAW264.7 cells for 24 h. Melittin was used as a positive control. The values are expressed as the mean ± SEM of three independent experiments: *p < 0.05; **p < 0.01; ***p < 0.001; ns, not significant.

[3] = test system: Escherichia coli (KCTC 1682); assay type: cell-based; settings: E. coli KCTC 1682; 99% growth inhibition; 2 × 10^5 CFU/ml, 37°C, 16 h, A600
From the text: The gram-negative bacterial strains Escherichia coli (KCTC 1682) and Acinetobacter baumannii (KCCM 40203) were purchased from the Korean Collection for Type Cultures (Korea) and the Korean Culture Center of Microorganisms (Korea), respectively. The MDR gram-negative strains Escherichia coli CCARM 1229, Escherichia coli CCARM 1238, Acinetobacter baumannii CCARM 12010, and Acinetobacter baumannii CCARM 12220 were obtained from the Culture Collection of Antibiotic-Resistant Microbes at Seoul Women’s University (South Korea).
The antibacterial properties of all peptides were determined by measuring the Minimum Inhibitory Concentration (MIC) as described previously. […] Two-fold serial dilutions of respective peptides were inoculated in 96-well plates in Mueller-Hinton medium, followed by the addition of bacterial suspensions (2 × 10^5 CFU/ml) at the log growth phase. The plates were incubated at 37°C for 16 h, and absorbance was read at 600 nm using a SpectraMAX microplate reader (Molecular Devices, USA).

CC[C@H](C)[C@H](NC(=O)CN)C(=O)NCC(=O)N[C@@H](C)C(=O)N[C@H](C(=O)N[C@@H](CC(C)C)C(=O)N[C@@H](CCCCN)C(=O)N[C@H](C(=O)N[C@@H](CC(C)C)C(=O)N[C@H](C(=O)N[C@H](C(=O)NCC(=O)N[C@@H](CC(C)C)C(=O)N1CCC[C@H]1C(=O)N[C@@H](C)C(=O)N[C@@H](CC(C)C)C(=O)N[C@H](C(=O)N[C@@H](CO)C(=O)N[C@@H](Cc1c[nH]c2ccccc12)C(=O)N[C@H](C(=O)N[C@@H](CCCCN)C(=O)N[C@@H](CCCNC(=N)N)C(=O)N[C@@H](CCCCN)C(=O)N[C@@H](CCCNC(=N)N)C(=O)N[C@@H](CCC(N)=O)C(=O)N[C@@H](CCC(N)=O)C(N)=O)[C@@H](C)CC)[C@@H](C)CC)[C@@H](C)O)[C@@H](C)O)C(C)C)C(C)C [Melittin, reference compound]
HC10 (peptide concentration which induces 10% hemolysis) [1]: 0.8 µM | Survival of RAW264.7 macrophage cells [2]: 13.7% | Minimal inhibitory concentration (MIC) [3]: 8 µM (≈ 22.8 µg/mL)

From paper PMC9705858, “Anti-Endotoxin 9-Meric Peptide with Therapeutic Potential for the Treatment of Endotoxemia” (Journal of Microbiology and Biotechnology, 2020)
